# Test system: cIAP2−/− and control mice
# Test: Survival of mice after treatment with platelet-activating factor (PAF)
# Assay type: in vivo, mouse
substance,measurement,setting,value
platelet-activating factor [PAF],Survival,"cIAP2+/+ mice, PAF 1 μg/kg i.v.",6/6
same,Survival,"cIAP2+/+ mice, PAF 2 μg/kg i.v.",6/6
same,Survival,"cIAP2+/+ mice, PAF 2.5 μg/kg i.v.",6/6
same,Survival,"cIAP2+/+ mice, PAF 3 μg/kg i.v.",0/6
same,Survival,"cIAP2+/+ mice, PAF 5 μg/kg i.v.",0/6
same,Survival,"cIAP−/− mice, PAF 1 μg/kg i.v.",6/6
same,Survival,"cIAP−/− mice, PAF 2 μg/kg i.v.",6/6
same,Survival,"cIAP−/− mice, PAF 2.5 μg/kg i.v.",6/6
same,Survival,"cIAP−/− mice, PAF 3 μg/kg i.v.",0/6
same,Survival,"cIAP−/− mice, PAF 5 μg/kg i.v.",0/6
